Values quoted from earlier work in patent US10814115B2, “Microneedle devices and uses thereof” (MASSACHUSETTS INSTITUTE OF TECHNOLOGY, priority 2011, dated 2020).

Conditions: cell wraps over r4-r6: Onset of hypoglycemia, can treat with glucose; cited from earlier work

## insulin aspart
  Known Toxic Levels (in words): Onset of
